# In PubChem BioAssay (EPA / NIEHS):
# “And” between values parts separate entries of the source, which are not always exact repeats. Identical values can stand only once. The list shows a part of the results, in another mix than the full data. Inconclusive results are not listed. Some structures have more than one record in an assay (separate samples or runs), and their calls can disagree. The source made the active and inactive calls. How the source made its calls, unless noted: active means hit-call score of the fitted dose curve at least 0.9, where 1 is the maximum; inactive means score below 0.9.
# What was measured:
# [1] = ACEA_ER_80hr: ACEA Biosciences xCELLigence Real-Time Cell Analysis on Estrogen Receptor Agonism for Proliferation (AID 2282667; active means hit-call score of the fitted dose curve at least 0.9, where 1 is the maximum); details: T47D proliferation, impedance (xCELLigence), 80 h
# How it was run: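 Real-time electrical impedance tracked growth of the human breast line T47D, with the 80 h post-dosing value used. Dosing spanned eight 1:4 steps down from a 100 uM final top concentration, run in duplicate.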
# [2] = APR_HepG2_CellCycleArrest_24hr: Apredica 24-hour HepG2 Assay for Cell Cycle Arrest (AID 2282905); details: imaging, actives raise or lower the signal;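 further: cell cycle arrest scored as ratio of 2N to 4N nuclear DNA content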
# How it was run: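 HepG2 cells were exposed to compounds at 0.39–200 uM (ten concentrations, duplicate) in 0.5% v/v DMSO for 24 hr. After formaldehyde fixation and Triton permeabilization, Hoechst 33342-stained nuclei were imaged at 20x; DNA content was quantified, with bidirectional fitting against DMSO.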
# [3] = APR_HepG2_NuclearSize_24hr: Apredica 24-hour HepG2 Assay for Nuclear Size (AID 2282907); details: high-content imaging, actives raise or lower the signal
# How it was run: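 HepG2 human liver cells were exposed for 24 hr to compounds at 0.39–200 uM (ten concentrations, duplicate) in 0.5% v/v DMSO. They were then formaldehyde-fixed, Triton-permeabilized and Hoechst 33342-stained, and nuclear diameter was imaged at 20x. Bidirectional fits were made against DMSO.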
# [4] = APR_HepG2_CellLoss_24hr: Apredica 24-hour HepG2 Assay for Cell Loss (AID 2282908); details: high-content imaging;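 on AC50: fit in both directions so a hit may be cell loss or gain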
# How it was run: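 Compounds were tested at 0.39–200 uM in duplicate with 0.5% v/v DMSO final. Cells were then fixed in 3.7% formaldehyde, Hoechst 33342 nuclei were imaged at 20x by HCS, and cell number was fitted bidirectionally against DMSO.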
# [5] = APR_HepG2_MicrotubuleCSK_24hr: Apredica 24-hour HepG2 Assay for Microtubule CSK Stabilty (AID 2282909); details: HepG2 microtubule cytoskeleton imaging, actives raise or lower the signal
# How it was run: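 HepG2 cells exposed 24 h to compounds at 0.39–200 uM (duplicate, 0.5% v/v DMSO final), then fixed, permeabilized and immunostained for alpha-tubulin with Hoechst 33342. Cytoskeleton imaged at 20x; bidirectional fit versus DMSO baseline.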
# [6] = APR_HepG2_MitoticArrest_24hr: Apredica 24-hour HepG2 Assay for Mitotic Arrest (AID 2282910); details: high-content imaging, actives raise or lower the signal
# How it was run: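 HepG2 human liver cells were exposed to compounds at 0.39–200 uM (10 concentrations, duplicate) in 0.5% v/v DMSO for 24 hr, then fixed and immunostained for phospho-histone H3 with Hoechst 33342. Mitotic arrest came from HCS fluorescent imaging, fitted bidirectionally against DMSO.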
# [7] = APR_HepG2_MitoMembPot_24hr: Apredica 24-hour HepG2 Assay for Mitochondrial Membrane Potential (AID 2282911); details: imaging, actives raise or lower the signal
# How it was run: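 Cells are dosed for 24 hr across 0.39 to 200 uM with solvent held at 0.5% DMSO. They are then stained with 250 nM MitoTracker Red CMXRos for 30 min, fixed in 3.7% formaldehyde and imaged.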
# [8] = APR_HepG2_MitoMass_24hr: Apredica 24-hour HepG2 Assay for Mitochondrial Mass (AID 2282912); details: high-content imaging, actives raise or lower the signal
# How it was run: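 Human HepG2 liver cells were exposed for 24 hr to compounds at 0.39–200 uM (duplicates, 0.5% v/v DMSO final). They were stained live with 250 nM MitoTracker Red CMXRos for 30 min, fixed in 3.7% formaldehyde, and imaged by HCS fluorescence; signals were fitted bidirectionally against DMSO.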
# [9] = APR_HepG2_p53Act_24hr: Apredica 24-hour HepG2 Assay for p53 Activation (AID 2282913); details: high-content imaging, actives raise or lower the signal;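 further: p53 protein immunofluorescence averaged per cell in HepG2 with Hoechst nuclei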
# How it was run: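 Human HepG2 liver cells; 24 hr cpd treatment, 0.39–200 uM, 0.5% DMSO final. Fixed in 3.7% formaldehyde, permeabilized with 0.5% Triton X-100, stained with anti-p53/Cy5 plus Hoechst 33342. Six images per well at 20x; gain or loss vs DMSO.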
# [10] = APR_HepG2_CellCycleArrest_72hr: Apredica 72-hour HepG2 Assay for Cell Cycle Arrest (AID 2282914); details: high-content imaging, actives raise or lower the signal
# How it was run: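 Read-out is Hoechst-stained nuclear DNA content measured by automated fluorescence imaging (20x, six images per well), fitted in both directions relative to DMSO. Human HepG2 liver cells received 0.39–200 uM compound for 72 hr at 0.5% v/v DMSO.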
# [11] = APR_HepG2_CellCycleArrest_1hr: Apredica 1-hour HepG2 Assay for Cell Cycle Arrest (AID 2282666); details: high-content imaging, actives raise or lower the signal
# How it was run: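 HepG2 cells exposed for 1 h to 0.39–200 uM compound (0.5% DMSO). Fixed, Hoechst-stained nuclei imaged by ArrayScan; DNA content quantified by Cell Cycle analysis; bidirectional fit against DMSO.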
# [12] = APR_HepG2_CellLoss_1hr: Apredica 1-hour HepG2 Assay for Cell Loss (AID 2282668); details: high-content imaging;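 further: curves fitted both ways against DMSO so gain or loss of cells counts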
# How it was run: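 HepG2 cells were treated for 1 h with compound at 0.39–200 uM, in duplicate, in 0.5% DMSO. After formaldehyde fixation, Hoechst 33342-stained nuclei were imaged on an ArrayScan to count cells. Data were fitted bidirectionally versus DMSO.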
# [13] = APR_HepG2_MicrotubuleCSK_1hr: Apredica 1-hour HepG2 Assay for Microtubule CSK Stabilty (AID 2282669); details: HepG2 microtubule cytoskeleton imaging, actives raise or lower the signal
# How it was run: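 HepG2 cells exposed 1 h to 0.39–200 uM compound (0.5% DMSO, duplicates), then formaldehyde-fixed, permeabilized and immunostained for alpha-tubulin with Hoechst nuclei. Imaged by ArrayScan high-content analysis; bidirectional fit versus DMSO.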
# [14] = APR_HepG2_NuclearSize_1hr: Apredica 1-hour HepG2 Assay for Nuclear Size (AID 2282670); details: high-content imaging, actives raise or lower the signal
# How it was run: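 HepG2 cells dosed 1 hr with 0.39–200 uM compound (0.5% DMSO), formaldehyde-fixed, Hoechst 33342-stained and imaged at 20x; nuclear diameter from nuclear stain, fitted bidirectionally against DMSO.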
# [15] = APR_HepG2_p53Act_1hr: Apredica 1-hour HepG2 Assay for p53 Activation (AID 2282671); details: high-content imaging, actives raise or lower the signal
# How it was run: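 HepG2 cells treated 1 h with compound at 0.39–200 uM (10 concentrations, duplicate) in 0.5% DMSO. Formaldehyde-fixed, permeabilised cells immunostained for p53 with Hoechst 33342; high-content imaging, bidirectional fit versus DMSO.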
# [16] = APR_HepG2_MitoticArrest_1hr: Apredica 1-hour HepG2 Assay for Mitotic Arrest (AID 2282672); details: high-content imaging, actives raise or lower the signal
# How it was run: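 HepG2 cells exposed 1 hr to compounds at 0.39–200 uM (0.5% v/v DMSO final), then fixed in 3.7% formaldehyde and immunostained for phospho-histone H3 with Hoechst 33342. Mitotic arrest scored by automated fluorescence imaging, fitted bidirectionally versus DMSO.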
# [17] = APR_HepG2_P-H2AX_1hr: Apredica 1-hour HepG2 Assay for H2AX Phosphorylation (AID 2282673); details: high-content imaging, actives raise or lower the signal
# How it was run: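 HepG2 dosed 1 hr at 0.39-200 uM (0.5% DMSO final), duplicate. Fixed in 3.7% formaldehyde, Triton permeabilized, immunostained for phospho-histone H2A.x (1:200) with Hoechst 33342; ArrayScan 20x imaging, bidirectional fit vs DMSO.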
# [18] = APR_HepG2_MitoMass_1hr: Apredica 1-hour HepG2 Assay for Mitochondrial Mass (AID 2282674); details: high-content imaging, actives raise or lower the signal
# How it was run: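 HepG2 cells dosed 1 hr with 0.39-200 uM compound (0.5% DMSO), duplicate wells. Mitochondria stained with 250 nM MitoTracker Red CMXRos for 30 min before formaldehyde fixation, imaged at 20x by ArrayScan; bidirectional fit versus DMSO.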
# [19] = APR_HepG2_MitoMembPot_1hr: Apredica 1-hour HepG2 Assay for Mitochondrial Membrane Potential (AID 2282675); details: imaging, actives raise or lower the signal
# How it was run: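 HepG2 cells dosed 1 hour with 0.39–200 uM compound in duplicate, 0.5% DMSO final. MitoTracker Red CMXRos (250 nM, 30 min) loaded before formaldehyde fixation; fluorescence quantified by high-content imaging, bidirectional fitting versus DMSO.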
# [20] = APR_HepG2_StressKinase_1hr: Apredica 1-hour HepG2 Assay for Stress Kinase (AID 2282906); details: HepG2 stress kinase (phospho-c-Jun) imaging, actives raise or lower the signal
# How it was run: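 HepG2 cells dosed 0.39-200 uM (0.5% DMSO) for 1 h, then formaldehyde-fixed. Stress kinase read by phospho-c-Jun immunofluorescence using high-content imaging; bidirectional fit vs DMSO.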
smiles,measurement,setting,value
ClP(Cl)c1ccccc1,outcome,[1],inactive
CCCCOP(OCCCC)OCCCC,outcome,[1],inactive
CC(C)CCCCCCCOP(OCCCCCCCC(C)C)Oc1ccccc1,outcome,[1],inactive
CN(C(=O)Cc1cccc2occc12)[C@H]1CC[C@@]2(CCCO2)C[C@@H]1N1CCCC1,outcome,[2],inactive
same,outcome,[3],inactive
same,outcome,[4],inactive
same,outcome,[5],inactive
same,outcome,[6],inactive
same,outcome,[7],inactive
same,outcome,[8],inactive
same,outcome,[9],inactive
same,outcome,[10],inactive
O=[P+](Oc1ccccc1)Oc1ccccc1,AC50,[1],active: 7.14 µM
O=C1C2CC=CCC2C(=O)N1SC(Cl)(Cl)C(Cl)Cl (centres undefined),outcome,[11],inactive
same,outcome,[12],inactive
same,outcome,[13],inactive
same,outcome,[14],inactive
same,outcome,[15],inactive
same,outcome,[16],inactive
same,outcome,[17],inactive
same,outcome,[18],inactive
same,outcome,[19],inactive
same,outcome,[2],inactive
same,outcome,[20],inactive
same,outcome,[3],inactive
same,outcome,[5],inactive
same,outcome,[6],inactive
same,outcome,[7],inactive
same,outcome,[8],inactive
same,outcome,[9],inactive
same,outcome,[10],inactive
CCCCO[P+](=O)OCCCC,outcome,[1],inactive
CC(C)OP(=S)(OC(C)C)SCCNS(=O)(=O)c1ccccc1,outcome,[11],inactive
same,outcome,[12],inactive
same,outcome,[13],inactive
same,outcome,[14],inactive
same,outcome,[16],inactive
same,outcome,[17],inactive
same,outcome,[18],inactive
same,AC50,[19],active: 90.2 µM and active: 160 µM
same,outcome,[19],inactive
same,AC50,[2],active: 165 µM
same,outcome,[2],inactive
same,AC50,[20],active: 38.8 µM
same,outcome,[20],inactive
same,AC50,[3],active: 115 µM and active: 111 µM
same,outcome,[3],inactive
same,AC50,[4],active: 48.2 µM and active: 107 µM and active: 56.3 µM
same,AC50,[5],active: 48 µM and active: 166 µM
same,outcome,[5],inactive
same,AC50,[6],active: 63.3 µM and active: 179 µM
same,outcome,[6],inactive
same,AC50,[7],active: 128 µM and active: 8.44 µM and active: 104 µM
same,AC50,[8],active: 104 µM
same,outcome,[8],inactive
same,outcome,[10],inactive
Cc1cc([N+](=O)[O-])cc([N+](=O)[O-])c1O,outcome,[1],inactive
same,outcome,[3],inactive
same,AC50,[4],active: 64 µM
same,outcome,[5],inactive
same,AC50,[6],active: 100 µM
same,outcome,[7],inactive
same,AC50,[8],active: 158 µM
same,AC50,[9],active: 102 µM
